{"source": "patent US20250186503A1", "about": "“METHODS AND COMBINATIONS FOR TREATMENT AND T CELL MODULATION” (Juno Therapeutics, Inc., priority 2018, published 2025)", "key": {"anti-CD19 CAR T cells": {"test_system": "anti-CD19 CAR T cells", "assay": "Proliferation of anti-CD19 CAR T cells under sub-optimal anti-CD3 stimulation", "assay_type": "cell-based, human", "conditions": "5 μM, 72 hours", "from_the_text": "The CAR contained an anti-CD19 scFv, an Ig-derived spacer, a human CD28-derived transmembrane domain, a human 4-1BB-derived intracellular signaling domain and a human CD3 zeta-derived signaling domain. The nucleic acid construct encoding the CAR also included a truncated EGFR (tEGFR) sequence for use as a transduction marker, separated from the CAR sequence by a self-cleaving T2A sequence."}, "anti-BCMA CAR T cells [1]": {"test_system": "anti-BCMA CAR T cells", "assay": "Proliferation and expansion of anti-BCMA CAR T cells stimulated with BCMA-conjugated beads", "assay_type": "cell-based, human", "conditions": "5 μM, 50 μg/mL beads, day 4 but not day 7", "experimental": "Cryofrozen anti-BCMA CAR T cells, produced substantially as described in Example 1 and formulated at a 1:1 ratio of CD4+ and CD8+ T cells, were thawed.\nTo further assess proliferation, the cells containing anti-BCMA CAR-expressing T cells were labeled with the proliferation marker dye CELLTRACE VIOLET (CTV; ThermoFisher Scientific, Waltham MA) in accordance with the manufacturer's protocol prior to incubation with the BCMA-conjugated beads. Proliferation was assessed by dye dilution using flow cytometry on cells that were stimulated with beads from the 50 μg/mL BCMA-conjugated bead composition.\nFour days and seven days after addition of BCMA-conjugated beads, the incubated cells were stained with CD4 or CD8 and with an anti-EGFR antibody to determine the percentage of cells positive for EGFRt as a surrogate for CAR+ T cells. At the time of plating, 26% of the CD4+ cells expressed anti-BCMA CAR and 39% of the CD8+ cells expressed anti-BCMA CAR as determined by staining with BCMA-Fc."}, "anti-BCMA CAR T cells [2]": {"test_system": "anti-BCMA CAR T cells", "assay": "Cytokine production of anti-BCMA CAR T cells at low, medium and high BCMA bead stimulation", "assay_type": "cell-based, human", "conditions": "medium stimulation (50 μg/mL BCMA beads), 24 hours"}, "RPMI-8226": {"test_system": "RPMI-8226", "conditions": "dose-responsive and delayed effect"}}, "data": [{"smiles": "Nc1cccc2c1CN(C1CCC(=O)NC1=O)C2=O", "note": "(stereo not shown) [lenalidomide, 3-(4-amino-1-oxo-1,3-dihydro-2H-isoindol-2-yl)piperidine-2,6-dione]", "values": [{"measurement": "proliferation of the CAR+ T cells (CTV dilution)", "setting": "anti-CD19 CAR T cells", "value": "enhanced proliferation"}, {"measurement": "proliferation by CTV dilution", "setting": "anti-BCMA CAR T cells [1]", "value": "slight delay in proliferation"}, {"measurement": "increase in IL-2 and TNF-α concentrations compared with vehicle control", "setting": "anti-BCMA CAR T cells [2]", "value": 200, "unit": "%"}, {"measurement": "time in culture after which effect on cytolytic activity emerged", "setting": "RPMI-8226", "value": "> 50", "unit": "h"}]}]}
